In patent US20170089929A1:
One block for each substance: values may come before it.

Experiments:
misTTR antibody [1] = test: competition ELISA: suspended TTR fibrils against plate-bound GdnHCl-unfolded TTR for misTTR antibody
misTTR antibody [2] = test: competition ELISA: folded TTR in solution against plate-bound GdnHCl-unfolded TTR
misTTR antibody [3] = test: competition ELISA: monomeric TTR in solution against plate-bound GdnHCl-unfolded TTR for 1 ug/mL misTTR antibody

- EC50 (misTTR antibody [1]): 0.8 µM
Substance: TTR amyloid fibrils (from UniProt P02766 21-147)

- highest concentration without binding (misTTR antibody [2]): > 4 µM
Substance: folded tetrameric TTR (from UniProt P02766 21-147)

- EC50 (misTTR antibody [3]): 0.063 µM
Substance: monomeric TTR (from UniProt P02766 21-147)
